Results as given in PubChem BioAssay AID1992 (Sanford-Burnham Center for Chemical Genomics, 2009).
Only a part is listed here, and it is no random draw. Some tests of the compounds listed are not included; inactive here does not mean inactive elsewhere. Activity calls are given as the source filed them. No stated cut-off is given here; in the data, active means inhibition above about 60%; inactive means the rest.

Protein sequences, listed by entry. Tags and fused reporters are not part of them.
UniProt P51452, whole entry: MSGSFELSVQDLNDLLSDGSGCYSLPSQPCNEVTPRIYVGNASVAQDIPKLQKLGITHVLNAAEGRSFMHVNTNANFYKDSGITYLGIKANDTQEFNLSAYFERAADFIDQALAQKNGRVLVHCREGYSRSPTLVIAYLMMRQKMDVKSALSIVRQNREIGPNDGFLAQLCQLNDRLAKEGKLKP

These molecules were tested against Dual specificity protein phosphatase 3 (Homo sapiens) (UniProt P51452) (assay: VHR1 phosphatase inhibitors, primary screen, biochemical, colorimetric, HTS (AID 1992)). Conditions: recombinant VHR phosphatase, colorimetric substrate read-out; at 20 µM; active compounds read high.

| Structure (SMILES) | inhibition |
| --- | --- |
| COc1ccc(OC)c(C=C(C#N)C#N)c1 | inactive: -10.6% |
